Results: publication PMC4942610, “Exploration of acetanilide derivatives of 1-(ω-phenoxyalkyl)uracils as novel inhibitors of Hepatitis C Virus replication” (Scientific Reports, 2016)

Experiments:
[1] = target: NS3 helicase/NTPase (Con1 isolate of genotype 1b) (Hepatitis C virus genotype 1b, UniProt Q9WMX2); experiment: Recombinant NS3 helicase/NTPase activity; conditions: 50 µM
[2] = target: NS5B RNA-dependent RNA polymerase (RdRp), 1b (isolate Con1) (Hepatitis C virus genotype 1b, UniProt Q9WMX2); experiment: Recombinant NS5B RNA-dependent RNA polymerase activity, genotype 1b; conditions: 50 µM
[3] = target: NS5B RNA-dependent RNA polymerase (RdRp), 2a (isolate JFH1) (Hepatitis C virus genotype 2a, UniProt Q99IB8); experiment: Recombinant NS5B RNA-dependent RNA polymerase activity, genotype 2a

O=C(Cn1c(=O)ccn(CCCCCOc2ccc(Br)cc2)c1=O)Nc1ccc(Oc2ccc(Cl)cc2)cc1 [Z385]
inhibition of NS3 NTPase activity [1]: none of the compounds tested exhibited any notable inhibitory activity | inhibition of NS3 helicase activity [1]: none of the compounds tested exhibited any notable inhibitory activity | inhibition of NS5B RdRp activity (primer-dependent and de novo), genotype 1b [2]: none of the compounds tested exhibited any notable inhibitory activity | inhibition of NS5B RdRp activity (primer-dependent and de novo), genotype 2a [3]: none of the compounds tested exhibited any notable inhibitory activity

O=C(Cn1c(=O)ccn(CCCCCCOc2ccc(Br)cc2)c1=O)Nc1ccc(Oc2ccccc2)cc1 [Z400]
inhibition of NS3 NTPase activity [1]: none of the compounds tested exhibited any notable inhibitory activity | inhibition of NS3 helicase activity [1]: none of the compounds tested exhibited any notable inhibitory activity | inhibition of NS5B RdRp activity (primer-dependent and de novo), genotype 1b [2]: none of the compounds tested exhibited any notable inhibitory activity | inhibition of NS5B RdRp activity (primer-dependent and de novo), genotype 2a [3]: none of the compounds tested exhibited any notable inhibitory activity

O=C(Cn1c(=O)ccn(CCCCCCCCOc2ccc(Br)cc2)c1=O)Nc1ccc(Oc2ccccc2)cc1 [Z401]
inhibition of NS3 NTPase activity [1]: none of the compounds tested exhibited any notable inhibitory activity | inhibition of NS3 helicase activity [1]: none of the compounds tested exhibited any notable inhibitory activity | inhibition of NS5B RdRp activity (primer-dependent and de novo), genotype 1b [2]: none of the compounds tested exhibited any notable inhibitory activity | inhibition of NS5B RdRp activity (primer-dependent and de novo), genotype 2a [3]: none of the compounds tested exhibited any notable inhibitory activity
